Experimental data taken from ChEMBL document CHEMBL4823248, “Pyrazole Agonist of the Apelin Receptor Improves Symptoms of Metabolic Syndrome in Mice” (J Med Chem, 2021).

Target: T1, Apelin receptor (Mus musculus) (UniProt Q9WV08)
T1 sequence (whole entry): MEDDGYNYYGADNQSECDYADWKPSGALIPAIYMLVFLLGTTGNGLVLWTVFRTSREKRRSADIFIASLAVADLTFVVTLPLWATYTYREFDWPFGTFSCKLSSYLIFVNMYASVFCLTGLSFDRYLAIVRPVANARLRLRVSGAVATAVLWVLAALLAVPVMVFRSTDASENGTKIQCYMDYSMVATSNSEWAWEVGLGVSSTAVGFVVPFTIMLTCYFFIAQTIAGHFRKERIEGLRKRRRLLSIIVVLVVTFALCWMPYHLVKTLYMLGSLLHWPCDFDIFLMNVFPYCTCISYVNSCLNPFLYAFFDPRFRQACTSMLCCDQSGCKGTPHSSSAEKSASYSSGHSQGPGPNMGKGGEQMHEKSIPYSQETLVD
Test: Agonist activity at Galphaq16-fused mouse APJ receptor expressed in CHO cells assessed as stimulation of Ca2+ mobilization by measuring maximum efficacy incubated for 1 hr by Calcium 5-dye based fluorescence based assay relative to control
Format: cell-based
Details: filed as agonist

COc1cccc(OC)c1-c1cc(C(=O)N[C@@H](CCN2CCCCC2)CC(=O)NC2CCC2)nn1C1CCCC1.Cl
Emax: 94%
